Laboratory results published in patent publication US20080207927A1, “PROCESS FOR THE PRODUCTION OF GLYCEROL ACETALS” (priority 2006, published 2008).

Assay: Solubility in soybean oil fatty acid methyl ester
Format: physicochemical

glycerol acetal of isobutyraldehyde [Example 1]
Solubility in soybean oil fatty acid methyl ester: >50%
